Data reported in ChEMBL document CHEMBL1212913, “Quinazolin-4-one derivatives: A novel class of noncompetitive NR2C/D subunit-selective N-methyl-D-aspartate receptor antagonists” (J Med Chem, 2010).
pIC50: −log10 of the molar value.

Chains of the proteins cited; added tags and fusions are not shown. Lines headed by an entry give the natural chain unless they say otherwise; changes in a name come on top.
UniProt P19490: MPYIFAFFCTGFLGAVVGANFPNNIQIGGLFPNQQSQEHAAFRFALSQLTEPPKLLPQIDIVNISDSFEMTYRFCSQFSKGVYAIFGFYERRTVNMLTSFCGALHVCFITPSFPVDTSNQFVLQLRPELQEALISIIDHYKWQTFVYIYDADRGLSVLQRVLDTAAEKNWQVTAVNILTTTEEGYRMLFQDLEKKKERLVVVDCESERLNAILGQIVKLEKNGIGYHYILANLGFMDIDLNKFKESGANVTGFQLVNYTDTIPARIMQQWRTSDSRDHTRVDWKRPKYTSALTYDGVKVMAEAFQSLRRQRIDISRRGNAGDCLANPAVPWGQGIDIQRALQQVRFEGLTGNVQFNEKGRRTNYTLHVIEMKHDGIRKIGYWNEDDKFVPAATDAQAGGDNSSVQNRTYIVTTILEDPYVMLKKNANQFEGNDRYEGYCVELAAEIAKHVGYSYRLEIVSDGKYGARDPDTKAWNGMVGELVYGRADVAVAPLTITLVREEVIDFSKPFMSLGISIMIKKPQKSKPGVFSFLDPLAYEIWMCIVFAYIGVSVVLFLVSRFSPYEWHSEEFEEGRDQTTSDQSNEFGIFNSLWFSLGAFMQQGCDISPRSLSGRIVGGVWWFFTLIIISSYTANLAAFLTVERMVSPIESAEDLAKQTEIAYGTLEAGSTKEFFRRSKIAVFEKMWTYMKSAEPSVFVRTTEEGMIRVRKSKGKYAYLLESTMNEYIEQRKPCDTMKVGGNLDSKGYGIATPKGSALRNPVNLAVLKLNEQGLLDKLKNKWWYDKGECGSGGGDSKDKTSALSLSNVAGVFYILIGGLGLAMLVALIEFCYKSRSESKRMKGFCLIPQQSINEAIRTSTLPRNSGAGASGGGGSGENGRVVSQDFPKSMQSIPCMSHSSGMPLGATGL
UniProt Q62645, whole entry: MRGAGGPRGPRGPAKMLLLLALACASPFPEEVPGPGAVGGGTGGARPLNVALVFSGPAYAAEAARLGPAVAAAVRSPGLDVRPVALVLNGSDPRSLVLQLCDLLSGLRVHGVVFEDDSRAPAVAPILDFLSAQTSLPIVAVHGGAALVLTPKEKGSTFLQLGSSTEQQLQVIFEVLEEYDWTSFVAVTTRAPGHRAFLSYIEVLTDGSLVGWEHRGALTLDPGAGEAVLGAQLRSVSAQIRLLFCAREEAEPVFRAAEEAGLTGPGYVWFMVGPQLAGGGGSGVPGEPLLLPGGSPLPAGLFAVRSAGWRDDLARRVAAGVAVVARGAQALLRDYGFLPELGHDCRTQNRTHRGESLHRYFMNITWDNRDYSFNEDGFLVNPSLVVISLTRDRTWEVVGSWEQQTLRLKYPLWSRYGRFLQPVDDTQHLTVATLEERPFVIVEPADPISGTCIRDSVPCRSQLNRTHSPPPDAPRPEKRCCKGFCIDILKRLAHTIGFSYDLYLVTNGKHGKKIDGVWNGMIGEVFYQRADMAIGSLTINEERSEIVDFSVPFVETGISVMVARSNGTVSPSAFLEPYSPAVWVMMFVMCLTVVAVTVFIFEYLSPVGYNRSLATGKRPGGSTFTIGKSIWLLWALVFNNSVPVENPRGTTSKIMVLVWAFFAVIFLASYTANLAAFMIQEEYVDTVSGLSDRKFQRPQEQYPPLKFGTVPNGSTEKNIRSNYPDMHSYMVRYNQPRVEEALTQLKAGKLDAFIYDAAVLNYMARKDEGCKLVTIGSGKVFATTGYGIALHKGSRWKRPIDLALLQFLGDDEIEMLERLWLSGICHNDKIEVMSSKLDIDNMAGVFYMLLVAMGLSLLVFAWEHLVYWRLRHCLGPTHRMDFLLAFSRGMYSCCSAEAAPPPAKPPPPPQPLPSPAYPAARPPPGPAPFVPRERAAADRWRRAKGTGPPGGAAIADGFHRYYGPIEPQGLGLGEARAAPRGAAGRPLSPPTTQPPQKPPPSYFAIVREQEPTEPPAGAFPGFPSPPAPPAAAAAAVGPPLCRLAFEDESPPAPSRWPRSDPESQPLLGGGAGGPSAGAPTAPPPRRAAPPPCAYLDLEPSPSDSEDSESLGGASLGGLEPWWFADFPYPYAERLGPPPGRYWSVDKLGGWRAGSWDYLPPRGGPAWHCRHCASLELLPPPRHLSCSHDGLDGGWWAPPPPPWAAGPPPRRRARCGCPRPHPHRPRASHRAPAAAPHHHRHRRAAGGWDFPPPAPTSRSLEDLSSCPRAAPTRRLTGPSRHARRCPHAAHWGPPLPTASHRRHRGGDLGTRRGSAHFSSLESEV

What follows are compounds tested against Glutamate receptor 1 (Rattus norvegicus, UniProt P19490) (assay: Antagonist activity at rat recombinant GLuR1 expressed in Xenopus oocytes assessed as inhibition of glutamate-induced current by two-electrode voltage-clamp electrophysiology).
Type: functional, cell-based, Oocyte
How it was run: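 Two-electrode voltage clamp at −40 mV on Xenopus oocytes expressing rat GluR1, perfused with 90 NaCl, 1.0 KCl, 0.5 BaCl2, 0.005 EDTA, 10 HEPES (mM), pH 7.4, 23°C; activated by 100 μM glutamate. From 20 mM DMSO stocks, 5-7 concentrations, ≥4 oocytes each. Hill fit to mean composite curves normalized to control, minimum usually fixed at 0. Response >75% at 100 μM reported as >300 μM.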

pIC50	Compound
5.22	O=C(O)c1ccc(-n2c(/C=C/c3ccccc3[N+](=O)[O-])nc3ccccc3c2=O)cc1

Species: Rattus norvegicus
Assay: Selectivity ratio of IC50 for rat recombinant GLuR1 to IC50 for rat recombinant NR1-NR2D receptor
How it was run: (§1)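 Ratio of fitted IC50 values, either NR2A/NR2D or GluR1/NR2D, from two-electrode voltage-clamp Hill fits in oocytes. Where noted, calculated from IC50 values rounded to the nearest μM.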

Compound	Ratio IC50
O=C(O)c1cccc(-n2c(/C=C/c3ccccc3[N+](=O)[O-])nc3ccccc3c2=O)c1	1
Cc1ccc2nc(CCc3ccccc3)n(-c3ccc(C(=O)O)cc3)c(=O)c2c1	1
COc1ccc(-n2c(/C=C/c3cccc([N+](=O)[O-])c3)nc3ccccc3c2=O)cc1	1
COc1ccc(-n2c(/C=C/c3ccc([N+](=O)[O-])cc3)nc3ccccc3c2=O)cc1	1
O=C(O)c1ccccc1-n1c(/C=C/c2ccc([N+](=O)[O-])cc2)nc2ccccc2c1=O	1
COc1ccc(-n2c(/C=C/c3ccccc3[N+](=O)[O-])nc3ccccc3c2=O)cc1	2
COc1ccccc1-n1c(/C=C/c2ccccc2[N+](=O)[O-])nc2ccccc2c1=O	3
O=C(O)c1cccc(-n2c(/C=C/c3cccc([N+](=O)[O-])c3)nc3ccccc3c2=O)c1	2
O=C(O)c1ccccc1-n1c(/C=C/c2cccc([N+](=O)[O-])c2)nc2ccccc2c1=O	2

Species: Rattus norvegicus
Assay: Selectivity ratio of IC50 for rat recombinant NR1-NR2A receptor to IC50 for rat recombinant NR1-NR2D receptor
How it was run: as §1

Compound	Ratio IC50
O=C(O)c1cccc(-n2c(/C=C/c3ccccc3[N+](=O)[O-])nc3ccccc3c2=O)c1	2
Cc1ccc2nc(CCc3ccccc3)n(-c3ccc(C(=O)O)cc3)c(=O)c2c1	1
O=C(O)c1ccc(-n2c(/C=C/c3ccc([N+](=O)[O-])cc3)nc3ccccc3c2=O)cc1	4
COc1ccc(-n2c(/C=C/c3cccc([N+](=O)[O-])c3)nc3ccccc3c2=O)cc1	2
COc1ccc(-n2c(/C=C/c3ccc([N+](=O)[O-])cc3)nc3ccccc3c2=O)cc1	1
O=C(O)c1ccccc1-n1c(/C=C/c2ccc([N+](=O)[O-])cc2)nc2ccccc2c1=O	1
COc1ccc(-n2c(/C=C/c3ccccc3[N+](=O)[O-])nc3ccccc3c2=O)cc1	2
COc1ccccc1-n1c(/C=C/c2ccccc2[N+](=O)[O-])nc2ccccc2c1=O	1
O=C(O)c1cccc(-n2c(/C=C/c3cccc([N+](=O)[O-])c3)nc3ccccc3c2=O)c1	7
O=C(O)c1ccccc1-n1c(/C=C/c2cccc([N+](=O)[O-])c2)nc2ccccc2c1=O	2

What follows are compounds tested against Ionotropic glutamate receptor NMDA 1/2D (Rattus norvegicus, UniProt P35439+Q62645) (assay: Antagonist activity at rat recombinant NR1-NR2D receptor expressed in Xenopus oocytes at holding potential of -40mV by two-electrode voltage-clamp electrophysiology).
Type: functional, cell-based, Oocyte
How it was run: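 Oocytes expressing rat NR1-1a with NR2A, NR2B, NR2C or NR2D, clamped at −40 mV in Ba2+/HEPES recording solution pH 7.4, 23°C. Current evoked by 100 μM glutamate plus 30 μM glycine. Final DMSO 0.05-0.5%, 5-7 inhibitor concentrations, ≥4 oocytes each. IC50 from Hill fit of normalized mean composite data. […] Some NR2A oocytes given BAPTA-AM or K-BAPTA.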

pIC50	Compound
5.22	O=C(O)c1ccc(-n2c(/C=C/c3ccccc3[N+](=O)[O-])nc3ccccc3c2=O)cc1
